In the experiment the target is human glucagon receptor (Homo sapiens, UniProt P47871). Put plainly: Glucagon cAMP assay (Cisbio cAMP detection). To be noted: read-out: cAMP kb (nm); CHOK1 cells stably transfected with the human glucagon receptor; 100 pM glucagon challenge; Kb calculated from IC50 with a modified Cheng-Prusoff equation. The format is cell-based.

By UniProt entry, the sequences of proteins in these tests, tags left out. Residues count along the entry.
UniProt P47871, 26-477 limits assumed: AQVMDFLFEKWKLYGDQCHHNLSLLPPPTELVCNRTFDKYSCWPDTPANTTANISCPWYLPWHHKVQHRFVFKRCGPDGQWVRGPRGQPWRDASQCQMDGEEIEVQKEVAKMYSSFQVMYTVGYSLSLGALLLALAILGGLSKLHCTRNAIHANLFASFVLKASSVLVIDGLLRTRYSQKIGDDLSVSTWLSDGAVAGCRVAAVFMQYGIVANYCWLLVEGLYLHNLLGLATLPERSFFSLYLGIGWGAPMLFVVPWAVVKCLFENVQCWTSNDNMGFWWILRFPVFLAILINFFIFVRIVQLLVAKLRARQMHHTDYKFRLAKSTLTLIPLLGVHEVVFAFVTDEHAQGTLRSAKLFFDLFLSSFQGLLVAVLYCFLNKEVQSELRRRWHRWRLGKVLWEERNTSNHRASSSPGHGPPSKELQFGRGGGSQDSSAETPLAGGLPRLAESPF

Regarding `O=C(O)CCNC(=O)c1ccc(NC(c2ccc(-c3ccc(F)cc3)cc2)C2CCCC2)nc1` (single isomer, unassigned) [Example 4.27], the Kb was 310 nM.
The same measure for `O=C(O)CCNC(=O)c1ccc(NC(c2ccc(-c3ccc(F)cc3)cc2)C2CCCC2)nc1` (single isomer, unassigned) [Example 4.26]: 57 nM.

(Values after US8809342B2, “Glucagon receptor modulators” (Pfizer Inc., priority 2010, dated 2014).)
